Source: patent publication US9492444B2, “Extruded extended release abuse deterrent pill” (Pharmaceutical Manufacturing Research Services, Inc., priority 2013, dated 2016)

What was measured:
[1] = General solubility of exemplary components; assay type: physicochemical; conditions: 200 proof ethanol, filtered through 0.22 micrometer PTFE filter
Source text: The following table lists the relative solubility of exemplary components of a formulation. A number of different dyes are listed along with their solubility information taken from the various literature sources and tested experimentally (200 proof ethanol and filtered through a 0.22 micrometer PTFE filter).

[2] = cited from earlier work

O=S(=O)([O-])c1ccc(N=Nc2c(O)ccc3cc(S(=O)(=O)[O-])ccc23)cc1.[Na+].[Na+] [Yellow #6]
Yes: Alcohol Solubility (tested) [1] | Alcohol Solubility (Literature) [2] | Water Solubility [2]
